Measured values: patent US12084485B2 (Intarcia Therapeutics, Inc., priority 2020, dated 2024)

Amino acid sequences for entries named in this document (tags omitted). Residues count along the entry.
UniProt P32301, 22-463: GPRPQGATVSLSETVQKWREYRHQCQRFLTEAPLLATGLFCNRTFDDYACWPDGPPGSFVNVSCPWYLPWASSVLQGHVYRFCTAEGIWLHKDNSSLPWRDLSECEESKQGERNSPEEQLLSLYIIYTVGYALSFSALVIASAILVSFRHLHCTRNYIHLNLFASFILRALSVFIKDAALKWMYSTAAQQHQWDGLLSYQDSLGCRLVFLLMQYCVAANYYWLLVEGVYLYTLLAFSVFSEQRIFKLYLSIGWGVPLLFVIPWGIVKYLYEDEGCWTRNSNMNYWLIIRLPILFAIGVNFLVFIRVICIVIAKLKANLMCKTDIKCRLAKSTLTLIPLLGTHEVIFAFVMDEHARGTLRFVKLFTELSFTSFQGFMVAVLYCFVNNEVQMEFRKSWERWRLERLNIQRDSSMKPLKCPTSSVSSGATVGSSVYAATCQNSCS
UniProt P43220, 24-463: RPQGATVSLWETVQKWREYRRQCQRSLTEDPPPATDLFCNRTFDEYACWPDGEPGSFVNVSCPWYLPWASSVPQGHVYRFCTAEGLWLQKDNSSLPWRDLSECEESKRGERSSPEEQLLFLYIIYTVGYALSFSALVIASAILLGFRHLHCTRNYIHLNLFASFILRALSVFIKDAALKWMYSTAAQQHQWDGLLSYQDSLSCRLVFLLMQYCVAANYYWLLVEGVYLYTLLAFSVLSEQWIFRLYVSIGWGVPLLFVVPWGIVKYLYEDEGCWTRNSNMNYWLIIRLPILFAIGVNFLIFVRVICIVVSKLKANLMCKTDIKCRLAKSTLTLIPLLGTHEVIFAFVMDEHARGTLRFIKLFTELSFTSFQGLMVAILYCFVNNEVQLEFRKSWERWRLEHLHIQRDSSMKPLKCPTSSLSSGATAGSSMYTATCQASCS

Tests used:
rat GLP-1R = molecular target: T1, rat GLP-1R (Rattus norvegicus, UniProt P32301); assay: cAMP accumulation assay, CHO-K1 cells expressing rat GLP-1R; assay type: cell-based
T1 construct: a cDNA fragment encoding the full-length open reading frame of the rat GLP-1R; expressed in transfected cells; host or cells: CHO-K1 (transient, Lipofectamine 2000)

human GLP-1R = molecular target: T2, human GLP-1R (Homo sapiens, UniProt P43220); assay: cAMP accumulation assay, CHO-K1 cells expressing human GLP-1R; assay type: cell-based
T2 construct: expressed in transfected cells

[1] = Solubility in saline or DI water at room temperature (visual inspection); assay type: physicochemical; conditions: as TFA salt unless indicated otherwise
[2] = Stability in DMSO or DI water at 37° C. (purity by LC/MS and HPLC); assay type: physicochemical; conditions: TFA salt unless indicated otherwise
[3] = Intravenous infusion pharmacokinetics in Sprague-Dawley rats; conditions: rat, in vivo, 1-hour IV infusion, 0.033 mg/kg, male Sprague-Dawley rats
[4] = cited from earlier work
[5] = read-out: Solubility (mg/mL) in DI water
[6] = read-out: Solubility (mg/mL) in saline

Compound	EC50 (rat GLP-1R) [pM]	EC50 (human GLP-1R) [pM]	solubility [1, 5] [mg/mL]	solubility [1, 6] [mg/mL]	Stability @ 37° C. (% purity) Day 14 ([2]; solute DI H2O) [%]	Stability @ RT (% purity) Day 0 ([2]; solute DI H2O, 1 mg/ml) [%]	Stability @ RT (% purity) Day 14 ([2]; solute DI H2O) [%]	Stability @ RT (% purity) Day 28 ([2]; solute DI H2O) [%]	Stability @ 37° C. (% purity) Day 14 ([2]; solute Saline) [%]	Stability @ RT (% purity) Day 0 ([2]; solute Saline) [%]	Stability @ RT (% purity) Day 14 ([2]; solute Saline) [%]	Stability @ RT (% purity) Day 28 ([2]; solute Saline) [%]	further results
CC[C@H](C)[C@H](NC(=O)[C@H](Cc1ccccc1)NC(=O)[C@H](CC(C)C)NC(=O)[C@H](CCCNC(=N)N)NC(=O)[C@H](C)NC(=O)[C@H](C)NC(=O)[C@H](CCC(=O)O)NC(=O)[C@H](CCCCNC(=O)CC[C@H](NC(=O)CC[C@H](NC(=O)COCCOCCNC(=O)CCCCCCCCCCCCCCCCCCC(=O)O)C(=O)O)C(=O)O)NC(=O)[C@H](CCC(=O)O)NC(=O)[C@H](Cc1ccc(O)cc1)NC(=O)[C@H](CCC(N)=O)NC(=O)[C@H](CCCCN)NC(=O)[C@H](CO)NC(=O)[C@@H](NC(=O)[C@H](CC(=O)O)NC(=O)[C@H](CO)NC(=O)[C@@H](NC(=O)[C@H](Cc1ccccc1)NC(=O)[C@@H](NC(=O)CNC(=O)[C@H](CCC(=O)O)NC(=O)C(C)(C)NC(=O)[C@@H](N)Cc1c[nH]cn1)[C@@H](C)O)[C@@H](C)O)C(C)C)C(=O)N[C@@H](CO)C(=O)N[C@@H](Cc1c[nH]c2ccccc12)C(=O)N[C@@H](CC(C)C)C(=O)N[C@@H](CCCCN)C(=O)N[C@@H](CC(N)=O)C(=O)NCC(=O)NCC(=O)N1CCC[C@H]1C(=O)N[C@@H](CO)C(=O)N[C@@H](CO)C(=O)NCC(=O)N[C@@H](C)C(=O)N1CCC[C@H]1C(=O)N1CCC[C@H]1C(=O)N1CCC[C@H]1C(=O)N[C@@H](CO)C(N)=O [Compound A85]	1.58	–	–	–	–	–	–	–	–	–	–	–	–
CC[C@H](C)[C@H](NC(=O)[C@H](Cc1ccccc1)NC(=O)[C@H](CC(C)C)NC(=O)[C@H](CCCNC(=N)N)NC(=O)[C@H](C)NC(=O)[C@H](C)NC(=O)[C@H](CCC(=O)O)NC(=O)[C@H](CCCCNC(=O)CC[C@H](NC(=O)CC[C@H](NC(=O)COCCOCCNC(=O)CCCCCCCCCCCCCCCCCCC(=O)O)C(=O)O)C(=O)O)NC(=O)[C@H](CCC(=O)O)NC(=O)[C@H](Cc1ccc(O)cc1)NC(=O)[C@H](CCC(N)=O)NC(=O)[C@H](CCCCN)NC(=O)[C@H](CO)NC(=O)[C@@H](NC(=O)[C@H](CC(=O)O)NC(=O)[C@H](CO)NC(=O)[C@@H](NC(=O)[C@H](Cc1ccccc1)NC(=O)[C@@H](NC(=O)CNC(=O)[C@H](CCC(=O)O)NC(=O)C(C)(C)NC(=O)[C@@H](N)Cc1c[nH]cn1)[C@@H](C)O)[C@@H](C)O)[C@@H](C)CC)C(=O)N[C@@H](CO)C(=O)N[C@@H](Cc1c[nH]c2ccccc12)C(=O)N[C@@H](CC(C)C)C(=O)N[C@@H](CCCCN)C(=O)N[C@@H](CC(N)=O)C(=O)NCC(=O)NCC(=O)N1CCC[C@H]1C(=O)N[C@@H](CO)C(=O)N[C@@H](CO)C(=O)NCC(=O)N[C@@H](C)C(=O)N1CCC[C@H]1C(=O)N1CCC[C@H]1C(=O)N1CCC[C@H]1C(=O)N[C@@H](CO)C(N)=O [Compound A86]	2	–	–	–	–	–	–	–	–	–	–	–	–
CC[C@H](C)[C@H](NC(=O)[C@H](Cc1ccccc1)NC(=O)[C@H](CC(C)C)NC(=O)[C@H](CCCNC(=N)N)NC(=O)[C@H](C)NC(=O)[C@H](C)NC(=O)[C@H](CCC(=O)O)NC(=O)[C@H](CCCCNC(=O)CC[C@H](NC(=O)CC[C@H](NC(=O)COCCOCCNC(=O)CCCCCCCCCCCCCCCCCCC(=O)O)C(=O)O)C(=O)O)NC(=O)[C@H](CCC(=O)O)NC(=O)[C@H](Cc1ccc(O)cc1)NC(=O)[C@H](CCC(N)=O)NC(=O)[C@H](CCCCN)NC(=O)[C@H](CO)NC(=O)[C@H](CC(C)C)NC(=O)[C@H](CC(=O)O)NC(=O)[C@H](CC(N)=O)NC(=O)[C@@H](NC(=O)[C@H](Cc1ccccc1)NC(=O)[C@@H](NC(=O)CNC(=O)[C@H](CCC(=O)O)NC(=O)C(C)(C)NC(=O)[C@@H](N)Cc1c[nH]cn1)[C@@H](C)O)[C@@H](C)O)C(=O)N[C@@H](CO)C(=O)N[C@@H](Cc1c[nH]c2ccccc12)C(=O)N[C@@H](CC(C)C)C(=O)N[C@@H](CCCCN)C(=O)N[C@@H](CC(N)=O)C(=O)NCC(=O)NCC(=O)N1CCC[C@H]1C(=O)N[C@@H](CO)C(=O)N[C@@H](CO)C(=O)NCC(=O)N[C@@H](C)C(=O)N1CCC[C@H]1C(=O)N1CCC[C@H]1C(=O)N1CCC[C@H]1C(=O)N[C@@H](CO)C(N)=O [Compound A87]	2.51	1	> 88	> 104	91	96.6	94.4	90.1	83.9	97.5	91.6	89.6	–
CC[C@H](C)[C@H](NC(=O)[C@H](Cc1ccccc1)NC(=O)[C@H](CC(C)C)NC(=O)[C@H](CCCNC(=N)N)NC(=O)[C@H](C)NC(=O)[C@H](C)NC(=O)[C@H](CCC(=O)O)NC(=O)[C@H](CCCCNC(=O)CC[C@H](NC(=O)CC[C@H](NC(=O)COCCOCCNC(=O)CCCCCCCCCCCCCCCCCCC(=O)O)C(=O)O)C(=O)O)NC(=O)[C@H](CCC(=O)O)NC(=O)[C@H](Cc1ccc(O)cc1)NC(=O)[C@H](CCC(N)=O)NC(=O)[C@H](CCCCN)NC(=O)[C@H](CO)NC(=O)[C@@H](NC(=O)[C@H](CC(=O)O)NC(=O)[C@H](CC(N)=O)NC(=O)[C@@H](NC(=O)[C@H](Cc1ccccc1)NC(=O)[C@@H](NC(=O)CNC(=O)[C@H](CCC(=O)O)NC(=O)C(C)(C)NC(=O)[C@@H](N)Cc1c[nH]cn1)[C@@H](C)O)[C@@H](C)O)C(C)C)C(=O)N[C@@H](CO)C(=O)N[C@@H](Cc1c[nH]c2ccccc12)C(=O)N[C@@H](CC(C)C)C(=O)N[C@@H](CCCCN)C(=O)N[C@@H](CC(N)=O)C(=O)NCC(=O)NCC(=O)N1CCC[C@H]1C(=O)N[C@@H](CO)C(=O)N[C@@H](CO)C(=O)NCC(=O)N[C@@H](C)C(=O)N1CCC[C@H]1C(=O)N1CCC[C@H]1C(=O)N1CCC[C@H]1C(=O)N[C@@H](CO)C(N)=O [Compound A88]	2.51	1	> 81	> 107	97.5	96.9	94.6	93	95	97.2	93.6	92.1	–
CC[C@H](C)[C@H](NC(=O)[C@H](Cc1ccccc1)NC(=O)[C@H](CC(C)C)NC(=O)[C@H](CCCNC(=N)N)NC(=O)[C@H](C)NC(=O)[C@H](C)NC(=O)[C@H](CCC(=O)O)NC(=O)[C@H](CCCCNC(=O)CC[C@H](NC(=O)CC[C@H](NC(=O)COCCOCCNC(=O)CCCCCCCCCCCCCCCCCCC(=O)O)C(=O)O)C(=O)O)NC(=O)[C@H](CCC(=O)O)NC(=O)[C@H](Cc1ccc(O)cc1)NC(=O)[C@H](CCC(N)=O)NC(=O)[C@H](CCCCN)NC(=O)[C@H](CO)NC(=O)[C@@H](NC(=O)[C@H](CC(=O)O)NC(=O)[C@H](CC(N)=O)NC(=O)[C@@H](NC(=O)[C@H](Cc1ccccc1)NC(=O)[C@@H](NC(=O)CNC(=O)[C@H](CCC(=O)O)NC(=O)C(C)(C)NC(=O)[C@@H](N)Cc1c[nH]cn1)[C@@H](C)O)[C@@H](C)O)[C@@H](C)CC)C(=O)N[C@@H](CO)C(=O)N[C@@H](Cc1c[nH]c2ccccc12)C(=O)N[C@@H](CC(C)C)C(=O)N[C@@H](CCCCN)C(=O)N[C@@H](CC(N)=O)C(=O)NCC(=O)NCC(=O)N1CCC[C@H]1C(=O)N[C@@H](CO)C(=O)N[C@@H](CO)C(=O)NCC(=O)N[C@@H](C)C(=O)N1CCC[C@H]1C(=O)N1CCC[C@H]1C(=O)N1CCC[C@H]1C(=O)N[C@@H](CO)C(N)=O [Compound A89]	2	–	–	–	–	–	–	–	–	–	–	–	clearance [3]: 0.102 mL/min/kg; half-life ([3]; read-out: T1/2 (IV) (converted)): 13.5 h
CC[C@H](C)[C@H](NC(=O)[C@@H]1CCCN1C(=O)CNC(=O)[C@H](Cc1ccccc1)NC(=O)[C@H](CC(N)=O)NC(=O)[C@H](CC(N)=O)NC(=O)[C@H](CO)NC(=O)[C@H](CO)NC(=O)[C@H](Cc1c[nH]cn1)NC(=O)[C@@H](NC(=O)[C@H](CC(C)C)NC(=O)[C@H](Cc1ccccc1)NC(=O)[C@H](CC(N)=O)NC(=O)[C@H](C)NC(=O)[C@H](CC(C)C)NC(=O)[C@H](CCCNC(=N)N)NC(=O)[C@H](CCC(N)=O)NC(=O)[C@@H](NC(=O)[C@H](C)NC(=O)[C@@H]1CSSC[C@H](NC(=O)[C@@H](N)CCCCN)C(=O)N[C@@H](CC(N)=O)C(=O)N[C@@H]([C@@H](C)O)C(=O)N[C@@H](C)C(=O)N[C@@H]([C@@H](C)O)C(=O)N1)[C@@H](C)O)C(C)C)C(=O)N[C@@H](CC(C)C)C(=O)N1CCC[C@H]1C(=O)N1CCC[C@H]1C(=O)N[C@H](C(=O)N[C@@H](CC(N)=O)C(=O)N[C@H](C(=O)NCC(=O)N[C@@H](CO)C(=O)N[C@@H](CC(N)=O)C(=O)N[C@H](C(=O)N[C@@H](Cc1ccc(O)cc1)C(N)=O)[C@@H](C)O)C(C)C)[C@@H](C)O [pramlintide]	–	–	–	–	–	–	–	–	–	–	–	–	half-life in humans [4]: approximately 48 minutes

Read-outs that look alike come from different tables or passages of the source.
